Laboratory results from PubChem BioAssay AID1276 (Columbia University Molecular Screening Center, 2008).
The list shows a part of the results, in another mix than the full data. The source made the active and inactive calls.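 How the source made its calls: active means activation above a set limit, based on mean plus 3 SD of controls (cut at about 140% in these data); inconclusive means one replicate above the limit, the other below; inactive means the rest.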

Assay: activators of APP 5'UTR luciferase reporter, primary screen, SH-SY5Y cells (AID 1276)
Settings: SH-SY5Y APP 5'UTR luciferase reporter, luminescence; at 2 µM; stronger effect = higher value; zero percent = DMSO vehicle wells

SMILES | activation
O=[N+]([O-])c1ncn(CCn2ncnc2[N+](=O)[O-])n1 | inactive: -20.7%
CN(C)C(=O)OCCc1n(C)cc[n+]1C | inactive: 6.47%
CC1CCN(C(=O)Oc2c(Cl)cc(Cl)c3cccnc23)CC1 | inactive: 6.58%
CCN(/C(=N/P(=O)(N1CCOCC1)N1CCOCC1)N1CCOCC1)c1ccc(OC)cc1 | inactive: -2.92%
O=[N+]([O-])c1cccc2n[nH]nc12 | inactive: 5.45%
CC(=O)N1C2C3N(C(C)=O)C1C1N(C(C)=O)C(C(N1C(C)=O)N3C(C)=O)N2C(C)=O | inactive: 8.84%
Cc1ccc(NP(=O)(Oc2ccccc2)Oc2ccccc2)nc1 | inactive: 14.2%
CCc1nc2c(n1)c1c(non1O)c1c2no[n+]1[O-] | inactive: -3.72%
O=[N+]([O-])c1cc([N+](=O)[O-])c(CCNc2ccccc2)c([N+](=O)[O-])c1 | inactive: -19.1%
COc1ccc(C2=NCC(CBr)S2)cc1 (centres undefined) | inactive: 10.2%
CC(C)CC(=O)NC(Sc1ccc(Cl)cc1)C(Cl)(Cl)Cl (centres undefined) | inactive: 10.5%
Oc1ccccc1CNc1ccccn1 | inactive: 9.96%
Cc1c2non([O-])c-2c(C)[n+](=O)[n+]1[O-] | inactive: -2.5%
O=C(NC(Sc1ccncn1)C(Cl)(Cl)Cl)c1ccccc1 (centres undefined) | inactive: 20.7%
COc1ccccc1OP(=O)(Nc1ccc(C)cn1)Oc1ccccc1OC | inactive: -6.98%
Clc1ccc(Cl)c(NC2=NCC(CBr)S2)c1 (centres undefined) | inactive: 4.38%
CN1CCCC(OC(=O)C(c2ccccc2)c2ccccc2)C1 (centres undefined) | inactive: -8.01%
NC(=O)c1cc([N+](=O)[O-])cc([N+](=O)[O-])c1N | inactive: 9.56%
Cc1ccc(N/C(=N/P(=O)(N2CCOCC2)N2CCOCC2)N2CCOCC2)cc1 | inactive: -3.63%
CCN(N=Nc1nonc1N)c1nonc1N | inactive: -4.24%
CCOP(=O)(Nc1ccccc1)OCC | inactive: 4.34%
Cc1cc(SC(NC(=O)c2ccc(F)cc2)C(Cl)(Cl)Cl)ncn1 (centres undefined) | inactive: 5.61%
O=c1c2cc([N+](=O)[O-])ccc2[nH]c2c([N+](=O)[O-])cc([N+](=O)[O-])cc12 | inactive: -80.5%
COC(=O)c1cc2c(s1)N=C(c1ccccc1)N(C)P2(=O)N1CCOCC1 (centres undefined) | inactive: -8.55%
Cc1ccc(OP(=O)(Nc2ccccn2)Oc2ccc(C)cc2)cc1 | inactive: 24.1%
CC(=O)NC(SC(=S)N(CC(C)C)CC(C)C)C(Cl)(Cl)Cl (centres undefined) | inactive: 3.25%
CCC(=O)N1C2C3N(C(=O)CC)C1C1N(C(=O)CC)C(C(N1C(=O)CC)N3C(=O)CC)N2C(=O)CC | inactive: -0.91%

SMILES | activation
CCNC(=S)/N=C(\N)N[N+](=O)[O-] | inactive: 5.37%
O=C(NC1CCS(=O)(=O)C1)NP(=S)(Oc1ccccc1)Oc1ccccc1 (centres undefined) | inactive: -22.4%
c1ccc(-c2nn[nH]n2)c(-c2nn[nH]n2)c1 | inactive: 22.6%
CCOC(=O)NC(Sc1ccccc1)C(Cl)(Cl)Cl (centres undefined) | inactive: -8.91%
CC(=O)Nc1ccc(Oc2c([N+](=O)[O-])cc([N+](=O)[O-])cc2[N+](=O)[O-])cc1 | inactive: 7.95%
CC(C)(C)C(=O)NC(Sc1ccccc1)C(Cl)(Cl)Cl (centres undefined) | inactive: -5.06%
O=P1(Nc2nc3ccc(Cl)cc3s2)COc2ccccc2O1 (centres undefined) | inactive: 4.33%
CCOc1ccc(C2=NCC(CBr)S2)cc1 (centres undefined) | inactive: -29.6%
c1nnnn1CCn1cnnn1 | inactive: 7.22%
CC(C)C(=O)NC(Sc1ccccc1)C(Cl)(Cl)Cl (centres undefined) | inactive: 10.3%
O=P(Nc1nccs1)(c1ccccc1)c1ccccc1 | inactive: 6.82%
C(Cc1nn[nH]n1)Cc1nn[nH]n1 | inactive: 20.9%
O=C(OC1CN2CCC1CC2)c1cccc(Cl)c1 (centres undefined) | inactive: 0.59%
CC(=O)NC(SC(=S)N(C)C)C(Cl)(Cl)Cl (centres undefined) | inactive: 0.56%
O=P(Nc1ccccn1)(c1ccc(Br)cc1)c1ccc(Br)cc1 | inactive: -11.7%
O=P1(Nc2ccc(Br)cn2)COc2ccccc2OC1 | inactive: 10.9%
Cc1ccc(OCC(=O)OC2CN3CCC2CC3)cc1 (centres undefined) | inactive: 7.05%
O=P1(Nc2ncccn2)COc2ccccc2OC1 | inactive: -1.61%
CN(C)C1(CNC(=O)c2ccc(S(C)(=O)=O)cc2)CCCCC1 | inactive: 13.6%
Cc1nn(-c2ccccc2)c2c1P(=O)(N1CCOCC1)N(C)C(c1ccccc1)=N2 (centres undefined) | inactive: -1.51%
CC1CCC(C(C)C)C(OP(=O)(Nc2ccccn2)c2ccccc2)C1 (centres undefined) | inactive: -11.1%
CC1(CBr)Cn2c(nc3ccccc3c2=O)S1 (centres undefined) | inactive: -15.3%
CC(C)/C=N\N=C(\N)N[N+](=O)[O-] | inactive: -10.9%
CN(C(=O)Cc1ccc(Cl)c(Cl)c1)[C@@H]1CCCC[C@H]1N1CCCC1 | inactive: -1.71%
Clc1n[nH]nc1-c1nn[nH][15n]1 | inactive: -2.38%
O=P1(Nc2ccccn2)COc2ccccc2OC1 | inactive: 13.5%
COc1cc(C2NCCC3(OCCO3)C2(C)C)cc(OC)c1OC (centres undefined) | inactive: -4.42%

SMILES | activation
CCOP(=O)(Nc1cccc2ccccc12)OCC | inactive: 2.88%
Cc1ccc(NCCc2c([N+](=O)[O-])cc([N+](=O)[O-])cc2[N+](=O)[O-])cc1 | inactive: -17.5%
Cc1cccc(OCC(=O)OC2CN3CCC2CC3)c1 (centres undefined) | inactive: 2.2%
COc1cc(C(=O)NCC2(N3CCOCC3)CCCCC2)cc(Cl)c1OC(C)C | inactive: 2.94%
O=[N+]([O-])c1ccc2c(c1)nnn2O | inactive: -3.01%
CCOP1(=S)c2c(C)nn(CCC#N)c2N=C(c2ccc(F)cc2)N1C (centres undefined) | inactive: 3.45%
CCOP1(=S)c2c(C)nn(CCC#N)c2N=C(c2ccccc2F)N1C (centres undefined) | inactive: -1.67%
O=P(Nc1nccs1)(c1ccccc1)c1nc2ccccc2s1 (centres undefined) | inactive: -26.1%
O=P(Nc1nccs1)(Oc1ccccc1)Oc1ccccc1 | inactive: 9.03%
CCN(CC)C(=S)SC(NC=O)C(Cl)(Cl)Cl (centres undefined) | inactive: -1.15%
CC(C)NC(=O)NP(=O)(Oc1ccccc1)Oc1ccccc1 | inactive: 7.36%
O=[N+]([O-])c1cc([N+](=O)[O-])c(-c2ccn[nH]2)s1 | inactive: -7.75%
ClCCSc1nnc(-c2cccnc2)o1 | inactive: 5.76%
Cc1ccc2nc3c(c(C)c2c1)CC(C(Cl)Cl)S3 (centres undefined) | inactive: 21%
COc1ccc(N/C(=N/P(=O)(N2CCOCC2)N2CCOCC2)N2CCOCC2)cc1 | inactive: 9%
COc1ccc2nc(NP(=O)(c3ccccc3)c3ccccc3)sc2c1 | inactive: 26.9%
O=C(OC1CN2CCC1CC2)C12CC3CC(CC(C3)C1)C2 (centres undefined) | inactive: -7.49%
Cc1cc(=O)[nH]c(N[N+](=O)[O-])n1 | inactive: 2.32%
Cc1c2c(nc3ccccc13)SC(C(Cl)Cl)C2 (centres undefined) | inactive: -10.2%
CCC(C)N(CC(C)C)C(=S)SC(NC(C)=O)C(Cl)(Cl)Cl (centres undefined) | inactive: 3.47%
O=C(COc1ccccc1)OC1CN2CCC1CC2 (centres undefined) | inactive: -7.12%
COP1(=S)c2c(C)nn(CCC#N)c2N=C(c2ccc(F)cc2)N1C (centres undefined) | inactive: -19.2%
O=P(Nc1ccccn1)(c1cccc2ccccc12)c1cccc2ccccc12 | inactive: 14.7%
Cc1cc(SC(NC=O)C(Cl)(Cl)Cl)ncn1 (centres undefined) | inactive: 20.5%
Cc1cc(SC(NC(=O)c2ccccc2)C(Cl)(Cl)Cl)nc(C(C)C)n1 (centres undefined) | inactive: -7.44%
